Patent publication US8268635B2, “Methods of identifying agents that selectively activate p38 and/or NKkB signaling” (priority 2006, dated 2012)

Tests used:
neutrophils = assay: Neutrophil superoxide production, lucigenin chemiluminescence assay; assay type: cell-based, human; details: agent alone as stimulus
Description: Neutrophils were pre-treated with varying concentrations of SB203580 for 30 min and then exposed to 10 μM TNF70-80. The lucigenin enhanced chemiluminescence produced by the cells was measured in a luminometer. The peak initial rate of chemiluminescence produced is presented as the mean±sem of six experiments. The response in the presence of the inhibitor is expressed as a % of the control response. Statistical analyses, *p<0.05 and **P<0.01 when compared with control response.
Neutrophil superoxide production was measured as the chemiluminescence generated by the reduction of lucigenin, essentially as described previously (Kumaratilake, L. M., Rathjen, D. A., Mack, P., Widmer, F., Prasertsiriroj, V., and Ferrante, A. (1995) J. Clin. Invest. 95: 2315-2323). Briefly, to 1×10^6 neutrophils in 400 μl of HBSS was added 100 μl of stimulus and 500 μl of 250 μg/ml of lucigenin. The chemiluminescence was measured in a luminometer (Berthold Technologies, Bad Wildbad, Germany) over a 20 min period and the data imported into Microsoft Excel (Redmond, Wash.). […]

JNK = JNK activity in WEHI-164 cells; assay type: cell-based; details: 15 mins; TNF 1000 U/ml, TNF132-150 100 μg/ml
Description: A representative radiogram from the Instant Imager and pooled data (means±SEM of 3 experiments) are shown.
WEHI-164 cells were cultured in 28 cm^2 dishes to approx 80% confluence before the desired treatment. […] After washing twice with cold HBSS, cells were harvested by scraping and lysed in 400 μl of buffer A (20 mM HEPES, pH 7.4, 0.5% (v/v) Nonidet P-40, 100 mM NaCl, 1 mM EDTA, 2 mM Na3VO4, 2 mM dithiothreitol, 1 mM phenylmethylsulfonyl fluoride, and 10 μg/ml Sigma 104, leupeptin, aprotonin, pepstatin A, and benzamidine) for 2 h at 4° C. with constant mixing (Hii et al. (1998) J Biol Chem. 273(30):19277-82). After centrifugation (12,000 g×5 min), the supernatants were collected and the protein content of the lysates was determined by Lowry's method of protein determination. A solid phase assay using glutathione-S-transferase (GST)-conjugated-jun (1-79) was employed to assay JNK activity (Hii et al. (1998) J Biol Chem. 273(30):19277-82) GST-jun (1-79) was fractionated on 12% SDS polyacrylamide gels and the bands were detected and radioactivity determined using an Instant Imager (Packard Instruments, Canberra, Australia). For p38 and ERK1/ERK2 activity lysates containing equal amounts of protein (0.5-1 mg) were precleared with protein A sepharose (4° C.) before being incubated with anti-p38 or anti-ERK2 antibody (3 μg/sample). […]

TNF: Human recombinant TNF produced by Genentech, Inc.
stimulation of neutrophil respiratory burst / superoxide production (neutrophils): stimulated a respiratory burst
JNK activity in WEHI-164 cells (JNK): able to activate all three MAP kinases
